The experiment deals with HLA-B44 supertype molecules. The experiment is described as follows: HLA-B44 supertype cross-binding. Also on record: species or system human.
Where [1] appears, read: number of the six B44 supertype alleles bound.

Where two headings read alike, the source gives them in different places.

`CC(C)C[C@H](NC(=O)[C@H](CC(C)C)NC(=O)[C@@H](NC(=O)[C@H](CCC(=O)O)NC(=O)[C@H](CCCCN)NC(=O)CNC(=O)[C@H](CCC(=O)O)NC(=O)[C@H](C)N)C(C)C)C(=O)O` yielded a Degeneracy under setting [1] of 1.
The compound `CC(C)C[C@H](NC(=O)[C@H](CC(C)C)NC(=O)[C@H](CC(C)C)NC(=O)[C@@H](NC(=O)[C@H](CCC(=O)O)NC(=O)[C@H](CCCCN)NC(=O)CNC(=O)[C@H](CCC(=O)O)NC(=O)[C@H](C)N)C(C)C)C(=O)O` returned a Degeneracy under setting [1] of 6.
`CC(C)C[C@H](NC(=O)[C@H](CC(C)C)NC(=O)[C@@H](NC(=O)[C@H](CCC(=O)O)NC(=O)[C@H](CCCCN)NC(=O)CNC(=O)[C@H](CCC(=O)O)NC(=O)[C@H](C)N)C(C)C)C(=O)N[C@@H](CC(C)C)C(=O)N[C@H](C(=O)O)C(C)C` returned a Degeneracy under setting [1] of 4.
Take `CC[C@H](C)[C@H](NC(=O)[C@H](CO)NC(=O)[C@@H]1CCCN1C(=O)[C@H](CCCCN)NC(=O)[C@@H]1CCCN1C(=O)[C@H](CC(C)C)NC(=O)[C@H](CCC(=O)O)NC(=O)[C@H](C)N)C(=O)O`: the Degeneracy under setting [1] is given as 2.
In turn, `CC[C@H](C)[C@H](NC(=O)[C@H](CCC(=O)O)NC(=O)[C@@H]1CCCN1C(=O)[C@H](CCC(=O)O)NC(=O)[C@@H](N)CS)C(=O)N[C@@H](CCC(N)=O)C(=O)N[C@@H](CC(N)=O)C(=O)N[C@H](C(=O)N[C@H](C(=O)O)[C@@H](C)O)[C@@H](C)O` yielded a Degeneracy under setting [1] of 1.
Same read-out and setting: the figure for `CC[C@H](C)[C@H](NC(=O)[C@H](CCC(=O)O)NC(=O)[C@@H]1CCCN1C(=O)[C@H](CCC(=O)O)NC(=O)[C@@H](N)CS)C(=O)N[C@@H](CCC(N)=O)C(=O)N[C@@H](CC(N)=O)C(=O)N[C@H](C(=O)N[C@H](C(=O)N[C@@H](Cc1ccc(O)cc1)C(=O)N[C@@H](CC(C)C)C(=O)O)[C@@H](C)O)[C@@H](C)O` is 3; for `CC[C@H](C)[C@H](NC(=O)[C@H](CCC(=O)O)NC(=O)[C@@H]1CCCN1C(=O)[C@H](CCC(=O)O)NC(=O)[C@@H](N)CS)C(=O)N[C@@H](CCC(N)=O)C(=O)N[C@@H](CC(N)=O)C(=O)N[C@H](C(=O)N[C@H](C(=O)N[C@@H](Cc1ccc(O)cc1)C(=O)N[C@@H](CC(C)C)C(=O)N[C@@H](Cc1c[nH]c2ccccc12)C(=O)N[C@@H](Cc1c[nH]c2ccccc12)C(=O)O)[C@@H](C)O)[C@@H](C)O` it is 2; for `C[C@H](NC(=O)[C@H](CC(=O)O)NC(=O)[C@H](CCC(N)=O)NC(=O)[C@@H](NC(=O)[C@H](CCC(=O)O)NC(=O)[C@@H]1CCCN1C(=O)[C@H](CCC(=O)O)NC(=O)[C@@H](N)CS)[C@@H](C)O)C(=O)N[C@H](C(=O)O)[C@@H](C)O` it is 3.
On the same count and under the same terms, the same measure for `CC(C)[C@H](NC(=O)[C@@H]1CCCN1C(=O)[C@H](CC(N)=O)NC(=O)[C@H](CCC(N)=O)NC(=O)[C@@H](NC(=O)[C@H](CCC(=O)O)NC(=O)[C@@H](N)CS)[C@@H](C)O)C(=O)N[C@@H](CO)C(=O)N[C@@H](C)C(=O)O`: 4; for `CC(C)C[C@H](NC(=O)[C@H](CC(N)=O)NC(=O)[C@H](CCC(=O)O)NC(=O)CN)C(=O)N[C@@H](CC(N)=O)C(=O)N[C@@H](CC(C)C)C(=O)N[C@@H](CO)C(=O)N[C@@H](CS)C(=O)N[C@@H](Cc1c[nH]cn1)C(=O)N[C@@H](C)C(=O)O`: 3.
`CC(C)C[C@H](NC(=O)[C@H](CC(N)=O)NC(=O)[C@H](CCC(=O)O)NC(=O)CN)C(=O)N[C@@H](CC(N)=O)C(=O)N[C@@H](CC(C)C)C(=O)N[C@@H](CO)C(=O)N[C@@H](CS)C(=O)N[C@@H](Cc1c[nH]cn1)C(=O)N[C@@H](C)C(=O)N[C@@H](C)C(=O)O` yielded a Degeneracy under setting [1] of 3.
For the compound `CC[C@H](C)[C@H](NC(=O)[C@H](CCC(N)=O)NC(=O)[C@H](CCCNC(=N)N)NC(=O)[C@H](CC(N)=O)NC(=O)CNC(=O)[C@H](CC(=O)O)NC(=O)[C@@H](NC(=O)[C@H](CCCNC(=N)N)NC(=O)[C@H](CCC(=O)O)NC(=O)CN)C(C)C)C(=O)O`, the Degeneracy under setting [1] is 2.
Same read-out and setting: the same measure for `CC[C@H](C)[C@H](N)C(=O)N[C@@H](CCC(=O)O)C(=O)N[C@@H](CO)C(=O)N[C@H](C(=O)N1CCC[C@H]1C(=O)N[C@@H](Cc1ccccc1)C(=O)N[C@@H](CC(N)=O)C(=O)N[C@H](C(=O)N[C@@H](C)C(=O)N[C@@H](CCC(=O)O)C(=O)NCC(=O)O)C(C)C)[C@@H](C)O`: 5; for `CC(C)C[C@H](NC(=O)[C@H](CC(N)=O)NC(=O)[C@H](Cc1c[nH]cn1)NC(=O)[C@@H](NC(=O)[C@H](CC(C)C)NC(=O)[C@H](CC(C)C)NC(=O)[C@H](CC(C)C)NC(=O)[C@@H](NC(=O)[C@H](CCC(=O)O)NC(=O)[C@@H](N)CCCCN)C(C)C)C(C)C)C(=O)O`: 4.
Still for that read-out and setting: the figure for `CSCC[C@H](N)C(=O)N[C@@H](CCC(=O)O)C(=O)N[C@@H](CO)C(=O)N1CCC[C@H]1C(=O)N[C@@H](CO)C(=O)N[C@@H](C)C(=O)N1CCC[C@H]1C(=O)N1CCC[C@H]1C(=O)N[C@@H](Cc1c[nH]cn1)C(=O)N[C@@H](CCCNC(=N)N)C(=O)N[C@@H](Cc1c[nH]c2ccccc12)C(=O)O` is 4.
In turn, `CC(C)[C@H](NC(=O)[C@H](CCCNC(=N)N)NC(=O)[C@H](Cc1ccccc1)NC(=O)[C@H](CCC(N)=O)NC(=O)CNC(=O)[C@@H](NC(=O)[C@H](C)NC(=O)[C@H](CCC(=O)O)NC(=O)[C@H](CCC(=O)O)NC(=O)[C@@H](N)CC(N)=O)[C@@H](C)O)C(=O)N[C@@H](Cc1ccc(O)cc1)C(=O)O` had a Degeneracy under setting [1] of 3.
As to `CC(C)C[C@H](NC(=O)[C@H](CCC(=O)O)NC(=O)[C@@H](N)CC(N)=O)C(=O)N[C@@H](CO)C(=O)N[C@H](C(=O)N[C@@H](CC(=O)O)C(=O)N[C@@H](Cc1c[nH]cn1)C(=O)N[C@@H](CO)C(=O)N[C@@H](CC(=O)O)C(=O)N1CCC[C@H]1C(=O)N[C@H](C(=O)O)C(C)C)C(C)C`, the Degeneracy is reported as 3.
For the compound `CC(C)C[C@H](NC(=O)[C@H](Cc1ccc(O)cc1)NC(=O)[C@@H](NC(=O)[C@@H](NC(=O)[C@H](CC(N)=O)NC(=O)[C@H](CCC(N)=O)NC(=O)[C@H](C)NC(=O)[C@H](CCC(=O)O)NC(=O)[C@@H]1CCCN1)[C@@H](C)O)[C@@H](C)O)C(=O)N[C@@H](Cc1c[nH]c2ccccc12)C(=O)N[C@@H](Cc1c[nH]c2ccccc12)C(=O)O`, the Degeneracy under setting [1] came to 3.
Still for that read-out and setting: the same measure for `CC[C@H](C)[C@H](NC(=O)[C@H](CCC(=O)O)NC(=O)[C@@H]1CCCN1)C(=O)N[C@@H](CCC(N)=O)C(=O)N[C@@H](CC(N)=O)C(=O)N[C@H](C(=O)N[C@H](C(=O)N[C@@H](Cc1ccc(O)cc1)C(=O)N[C@@H](CC(C)C)C(=O)O)[C@@H](C)O)[C@@H](C)O`: 2.
`CC[C@H](C)[C@H](NC(=O)[C@H](CCC(=O)O)NC(=O)[C@@H]1CCCN1)C(=O)N[C@@H](CCC(N)=O)C(=O)N[C@@H](CC(N)=O)C(=O)N[C@H](C(=O)N[C@H](C(=O)N[C@@H](Cc1ccc(O)cc1)C(=O)N[C@@H](CC(C)C)C(=O)N[C@@H](Cc1c[nH]c2ccccc12)C(=O)N[C@@H](Cc1c[nH]c2ccccc12)C(=O)O)[C@@H](C)O)[C@@H](C)O` had a Degeneracy under setting [1] of 3.
On the same count and under the same terms, the same measure for `CC[C@H](C)[C@H](NC(=O)[C@H](CCC(=O)O)NC(=O)[C@@H]1CCCN1)C(=O)N[C@@H](CCC(N)=O)C(=O)N[C@@H](CC(N)=O)C(=O)N[C@H](C(=O)N[C@H](C(=O)N[C@@H](Cc1ccc(O)cc1)C(=O)N[C@@H](CC(C)C)C(=O)N[C@@H](Cc1c[nH]c2ccccc12)C(=O)N[C@@H](Cc1c[nH]c2ccccc12)C(=O)N[C@H](C(=O)O)C(C)C)[C@@H](C)O)[C@@H](C)O`: 3.
Still for that read-out and setting: the figure for `CC[C@H](C)[C@H](NC(=O)[C@H](CC(N)=O)NC(=O)[C@@H]1CCCN1C(=O)[C@@H](NC(=O)[C@H](Cc1ccccc1)NC(=O)[C@H](CC(C)C)NC(=O)[C@H](CCC(=O)O)NC(=O)[C@@H](N)CCC(N)=O)[C@@H](C)CC)C(=O)O` is 3; for `CC[C@H](C)[C@H](NC(=O)[C@H](CC(N)=O)NC(=O)[C@@H]1CCCN1C(=O)[C@@H](NC(=O)[C@H](Cc1ccccc1)NC(=O)[C@H](CC(C)C)NC(=O)[C@H](CCC(=O)O)NC(=O)[C@@H](N)CCC(N)=O)[C@@H](C)CC)C(=O)N[C@H](C(=O)O)[C@@H](C)O` it is 4; for `CC[C@H](C)[C@H](NC(=O)[C@H](CC(N)=O)NC(=O)[C@H](CO)NC(=O)[C@@H](NC(=O)[C@H](Cc1ccccc1)NC(=O)[C@H](CC(C)C)NC(=O)[C@H](CCC(=O)O)NC(=O)[C@@H](N)CCC(N)=O)[C@@H](C)CC)C(=O)O` it is 1.
`CC[C@H](C)[C@H](NC(=O)[C@H](Cc1ccccc1)NC(=O)[C@H](CC(C)C)NC(=O)[C@H](CCC(=O)O)NC(=O)[C@@H](N)CCC(N)=O)C(=O)N[C@@H](CO)C(=O)N[C@@H](CC(N)=O)C(=O)N[C@H](C(=O)N[C@H](C(=O)O)[C@@H](C)O)[C@@H](C)CC` showed a Degeneracy under setting [1] of 3.
Under setting [1], `CC[C@H](C)[C@H](NC(=O)[C@H](CCC(=O)O)NC(=O)[C@@H](N)CCCNC(=N)N)C(=O)N[C@H](C(=O)N[C@@H](Cc1ccc(O)cc1)C(=O)N1CCC[C@H]1C(=O)N[C@@H](CC(N)=O)C(=O)N[C@@H](C)C(=O)N[C@@H](CO)C(=O)N[C@@H](CC(C)C)C(=O)O)[C@@H](C)CC` showed a Degeneracy of 4.
`CC[C@H](C)[C@H](NC(=O)[C@H](CCC(=O)O)NC(=O)[C@@H](N)CCCNC(=N)N)C(=O)N[C@H](C(=O)N[C@@H](Cc1ccc(O)cc1)C(=O)N1CCC[C@H]1C(=O)N[C@@H](CC(N)=O)C(=O)N[C@@H](C)C(=O)N[C@@H](CO)C(=O)N[C@@H](CC(C)C)C(=O)N[C@@H](CC(C)C)C(=O)O)[C@@H](C)CC` showed a Degeneracy under setting [1] of 4.
The compound `CC(C)C[C@H](NC(=O)CNC(=O)[C@H](CO)NC(=O)[C@H](CC(N)=O)NC(=O)[C@H](CCCCN)NC(=O)[C@H](CCC(=O)O)NC(=O)[C@@H](N)[C@@H](C)O)C(=O)N[C@@H](Cc1ccc(O)cc1)C(=O)O` had a Degeneracy under setting [1] of 1.
`CC[C@H](C)[C@H](NC(=O)CNC(=O)[C@H](CS)NC(=O)[C@H](CCC(=O)O)NC(=O)[C@@H](N)Cc1ccc(O)cc1)C(=O)N[C@@H](CCC(N)=O)C(=O)N[C@@H](CC(N)=O)C(=O)N[C@@H](CCC(=O)O)C(=O)N[C@@H](CC(C)C)C(=O)O`: under setting [1], the Degeneracy is 5.
Same read-out and setting: the figure for `CC[C@H](C)[C@H](NC(=O)CNC(=O)[C@H](CS)NC(=O)[C@H](CCC(=O)O)NC(=O)[C@@H](N)Cc1ccc(O)cc1)C(=O)N[C@@H](CCC(N)=O)C(=O)N[C@@H](CC(N)=O)C(=O)N[C@@H](CCC(=O)O)C(=O)N[C@@H](CC(C)C)C(=O)N[C@@H](CO)C(=O)N[C@H](C(=O)O)C(C)C` is 5.

The values above are taken from patent US20060094649A1, “Hla-a1,-a2,-a3,-a24,-b7, and-b44 tumor associated antigen peptides and compositions” (priority 2002, published 2006).
